In the library only some 1.7% were active in any assay of this set; here they are far more common.
CAL PDZ FP-1: inhibitors of human CAL PDZ peptide binding; inhibition, % at 20 µM; purified CAL PDZ, TMR-peptide fluorescence polarization, 1 h; Q9HD26; 330,000 tested, 0.02% active;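 active = highest replicate inhibition of at least 40%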
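material = purified tagged CAL PDZ domain construct (CerCALP) | compound dosing = 20 µM, one dose | times = 1 h at RT | measured by = fluorescence polarization from S- and P-plane intensities, G-factor corrected | read-out = inhibition from polarization loss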
Dyrk1A ADPGlo: blocks rat Dyrk1A kinase activity | inhibition, % at 12.5 µM | AID 504441 | 310,000 tested, 0.43% active | ADP-Glo luminescence, NFATc1 peptide | Q63470; in the data active = inhibition above about 50%
UUG fidelity: yeast start codon fidelity modulation; activity score, % at 18.7 µM; actives 0.13% (n = 350,000); S. cerevisiae UUG-firefly luciferase reporter, luminescence/redox ratio; AID 602363;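 active means replicate mean at a twofold rise or more, about +100% in these data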;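 further: firefly luciferase made from a UUG start codon reports start codon fidelity; reporter light over untreated wells divided by growth signal over untreated wells; some hits fall short of that in this replicate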
CDK5 inh: CDK5/p35 (human) kinase inhibition; AID 488839; inhibition, % at 10 µM; 330,000 tested, 0.01% active; Recombinant CDK5/p35, ADP-Glo luminescence, 60 min;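 active = highest replicate inhibition of at least 50% and at least 75% of replicates reaching 50%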
CAL PDZ FP-2: CAL PDZ (human) peptide binding inhibition. Q9HD26. purified CAL PDZ, TMR-peptide fluorescence polarization, 1 h. inhibition, % at 24.9 µM. 300,000 tested, 0.92% active;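 active = mean inhibition of at least 30% with at least half of replicates also reaching 30%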
dFosB act-1: mouse delta FosB homodimer activation | P13346 | purified delta FosB, TAMRA-CDK5 oligo fluorescence polarization; percent of positive-control signal above neutral wells | activation, % at 25 µM | 340,000 tested, 0.99% active;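 active = mean activation above about 17%, with every replicate also reaching it, limit read from the data, passing the limit was not always enough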
dFosB act-2: enhances mouse delta FosB homodimer binding to DNA | shares compounds with dFosB act-1 | purified delta FosB, TAMRA-CDK5 oligo fluorescence polarization; normalised: neutral wells 0, positive control 100 | activation, % at 24.9 µM | 2,400 tested, under 10 active;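 active = highest replicate activation at or above 34% and every replicate reaching that threshold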;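 note: higher polarization means more probe DNA bound by delta FosB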
A number is an active result; n = inactive; x = no result.

SMILES	CAL PDZ FP-1	Dyrk1A ADPGlo	UUG fidelity	CDK5 inh	CAL PDZ FP-2	dFosB act-1	dFosB act-2
COc1ccc(NC(=O)Nc2ccc3c(c2)C(=O)N([C@H](C)CO)C[C@@H](C)[C@@H](CN(C)S(=O)(=O)c2ccccc2)OCCCC[C@H](C)O3)cc1	x	x	n	x	x	x	x
CCOC(=O)c1c(C)[nH]c(C(=O)OCC(=O)Nc2ccccc2)c1C	n	x	n	n	n	27.0	n
O=C(N/N=C/c1ccc(OC(=O)c2cccs2)cc1)c1ccc(F)cc1	n	n	n	n	n	33.2	n
COc1ccc(CN2CN(S(=O)(=O)c3cccs3)c3nc4ccccc4nc32)cc1	n	n	x	n	n	57.9	n
O=S(=O)(c1cccs1)N1CN(Cc2ccccc2)c2nc3ccccc3nc21	n	n	x	n	n	n	x
N#C[C@@H]1[C@H](c2ccc(C#CCC3CCCC3)cc2)[C@@H](CO)N1C(=O)c1ccccn1	x	x	n	x	x	x	x
Cc1nc2ccccn2c1C(=O)CSc1ccc(Cl)cc1Cl	n	n	n	n	n	49.8	n
C[C@@H]1CCCCO[C@@H](CN(C)Cc2ccc(Cl)c(Cl)c2)[C@H](C)CN([C@H](C)CO)C(=O)c2cc(NS(C)(=O)=O)ccc2O1	x	x	n	x	x	x	x
Cc1ccccc1-n1nnnc1SCC(=O)NNC(=O)c1ccc(NC(=O)CC#N)cc1	n	n	n	n	x	47.4	n
COC(=O)c1ccccc1NC(=O)CSc1nnnn1-c1ccc(C)cc1C	n	n	n	n	n	30.9	n
COc1cccc(CN2[C@H](CO)[C@@H]3c4ccccc4N(C(=O)c4cccnc4)C[C@@H]32)c1	x	x	n	x	x	x	x
O=C(Nc1ccc2c(c1)OCO2)N[C@H]1CC[C@@H](CC(=O)N2CCN(c3ccccc3)CC2)O[C@@H]1CO	x	x	n	x	x	x	x
Cc1ccc(NC(=O)c2ccc3nc(N4CCOCC4)sc3c2)c(Cl)c1	n	n	n	n	x	141.2	n
COc1ccc(-c2cnc3c(c2)C(=O)N([C@H](C)CO)C[C@@H](C)[C@@H](CN(C)C(=O)C2CCC2)O3)cc1	x	x	n	x	x	x	x
CCOC(=O)N1CCN(C(=O)Cn2nc(C)n3nc(-c4ccccc4)cc3c2=O)CC1	n	n	n	n	n	n	x
Cc1nn(CC(=O)Nc2ccc(Cl)cc2)c(=O)c2cc(-c3ccccc3)nn12	n	n	n	n	n	30.0	n
COc1ccc(-c2cc3c(=O)n(CC(=O)Nc4ccc(Cl)cc4)ncn3n2)cc1	n	x	x	x	n	30.6	n
Cn1c2ccccc2c2cnn(CC(=O)Nc3ccc(Cl)cc3)c(=O)c21	n	n	x	n	n	25.9	n
COc1ccc(-c2cc3c(=O)n(CC(=O)NCc4ccccc4F)ncn3n2)cc1	n	n	n	n	x	n	x
COc1ccc(NC(=O)Cn2ncn3nc(-c4ccc(OC)cc4)cc3c2=O)cc1	n	n	n	n	n	63.2	n
O=C(N[C@H]1CC[C@@H](CCn2cc(-c3ccccn3)nn2)O[C@@H]1CO)c1cccnc1	x	x	n	x	x	x	x
CCOC(=O)N(C)C[C@@H]1OCc2ccccc2-c2c(n(C)c3ccccc23)C(=O)N([C@H](C)CO)C[C@@H]1C	x	x	n	x	x	x	x
C[C@H](CO)N1C[C@H](C)[C@H](CN(C)C(=O)c2ccccn2)Oc2cc(C#Cc3ccccc3)ccc2S1(=O)=O	x	x	n	x	x	x	x
CCOC(=O)Nc1ccc2c(c1)N(C(=O)CN)c1ccccc1CC2	n	n	n	n	n	29.6	n
CCOC(=O)c1cccc(NC(=O)CCS(=O)(=O)c2ccc(Br)s2)c1	n	n	x	n	n	111.3	n
SMILES	CAL PDZ FP-1	Dyrk1A ADPGlo	UUG fidelity	CDK5 inh	CAL PDZ FP-2	dFosB act-1	dFosB act-2
CCOC(=O)c1cccc(NC(=O)CCS(=O)(=O)c2cccs2)c1	x	n	n	n	n	n	x
COCC(=O)N(C)C[C@@H]1Oc2ncc(-c3ccccc3F)cc2C(=O)N([C@@H](C)CO)C[C@H]1C	x	x	n	x	x	x	x
O=C(CSc1nc2ccccc2c(=O)n1-c1ccc(Cl)cc1)c1ccco1	n	n	n	n	n	52.8	n
O=C(CSc1nc2ccccc2c(=O)n1-c1ccccc1)c1c[nH]c2ccccc12	n	n	x	n	n	28.6	n
NC(=O)CSc1nc2ccccc2c(=O)n1-c1ccccc1	n	n	n	n	n	n	x
O=C1COc2ccc(C(=O)COC(=O)c3ccccc3F)cc2N1	n	x	n	n	n	n	x
